From US9618524B2, “Method, composition, isolation and identification of a plaque particle and related biomarker” (Plaxgen Inc., priority 2012, dated 2017)

Key:
Test in all cases: Mass spectroscopy proteomics, semi-quantitative binding affinity of serum proteins (plaqueproteome, Table 2)
Settings in all cases: higher number = stronger affinity
[1] = target: T1, Abeta-42 plaque particles (Homo sapiens, UniProt P05067)
T1 construct: Abeta 1-42
Description: Next to isolate serum derived Abeta-42 plaque particles, the plasma or serum samples obtained from AD subjects were first centrifuged at 5,000 rpm for 5 min and the supernatants were transferred to new centrifuge tubes. Next, the supernatants were diluted in PBS to make 50% of the serum and plasma samples and used for incubation with Abeta-42 plaque oligomers/aggregates. Each assay was performed in 1 mL reaction (800 μL of 50% plasma or serum) and 200 μL (30 μg) of the Abeta-42 aggregates and the mixtures were incubated at 37° C. for 1 hr. To the mixture Thioflavin S dye (120 μg) was added and the sample was incubated for additional 30 min at 37° C. After the incubation, the mixture was directly used for sample acquisition using flow cytometer (FACS ARIA II, BD Biosciences, San Jose, Calif.). After initial detection of Abeta-42 plaque particles in the acquisition blot, gates were drawn in fluorescent dot blot to separately sort and isolate fluorescently labeled Abeta-42 particles.
For preparing trypsin digested peptide sequences, the isolated plaque particles were centrifuged at 10000 rpm for 5 min and the pellet containing plaque particles was resuspended in 100 μl PBS buffer. […]
(§1) All MS/MS samples were analyzed using Sequest (Thermo Fisher Scientific, San Jose, Calif., USA; version 1.0). […]

[2] = target: T2, alpha-synuclein plaque particles (Homo sapiens, UniProt P37840)
T2 construct: 140 amino acids polypeptide
Description: To prepare oligomers/aggregates of human alpha-synuclein (140 amino acids polypeptide), 1 mg of the recombinant alpha-synuclein protein was suspended in 1 mL of PBS and the sample was incubated at 37° C. for 2 hrs. After incubation, all the samples were centrifuged for 5 min. at 5000 rpm to remove precipitate, if any, and the supernatant containing oligomers/aggregates were used in vitro plaque particles formation assay. For detecting alpha-synuclein plaque particles Thioflavin S (Ex/Em=430 nm/550 nm) amyloid binding fluorescent dye (10 μg) was used.
Similarly, to isolate alpha-synuclein plaque particles, diluted plasma or serum samples obtained from AD subjects were used for incubation with alpha-synuclein plaque oligomers/aggregates. Each assay was performed in 1 mL reaction (800 μL of 50% plasma or serum) and 200 μL (30 μg) of the alpha-synuclein aggregates and the mixtures were incubated at 37° C. for 1 hr. To the mixture Thioflavin S dye (120 μg) was added and the sample was incubated for additional 30 min at 37° C. After the incubation, the mixture was directly used for sample acquisition using flow cytometer (FACS ARIA II, BD Biosciences, San Jose, Calif.). […]
as §1

Tau plaque particles = system: Tau plaque particles; design: species or system human
Description: To prepare derivatives of human Tau proteins oligomers/aggregates, 1 mg of Tau-45 Peptide (45-73 Exon 2/Insert 1 domain) was suspended in 1 mL of PBS and the sample was incubated at 37° C. for 2 hrs. For Tau-74 (74-102) (Exon 3/Insert 2 domain) preparation, 1 mg of Tau-74 was suspended in 1 mL of PBS and the sample was incubated at 37° C. for 2 hrs. Similarly for preparing Tau-275 (275-305) (Repeat 2 domain) 1 mg of the peptide was suspended in 1 mL of PBS and the sample was incubated at 37° C. for 2 hrs. After incubation, all the samples were centrifuged for 5 min. at 5000 rpm to remove precipitate, if any, and the supernatant containing oligomers/aggregates were used for in vitro amyloid plaque particles formation assay. For detecting Tau plaque particles, Thioflavin S (Ex/Em=430 nm/550 nm) amyloid binding fluorescent dye (10 μg) was used in the assay.
Next, to isolate Tau plaque particles, as performed for Abeta-42 and Abeta-28 plaque particles isolation, diluted serum samples were used for incubation separately with Tau-45, Tau-74 and Tau-275 oligomers/aggregates. Each assay was performed in 1 mL reaction (800 μL of 50% plasma or serum) and 200 μL (30 μg) of each Tau aggregates and the mixtures were incubated at 37° C. for 1 hr. […]
as §1

[3] = system: Low density cholesterol (Chl small) plaque particles; design: species or system human
Description: (§2) The goal was to isolate plaque particles synthesized in the bio-fluids in a relatively pure form to enable their subsequent use for identification of components that contribute to the plaque formation. In order to isolate cholesterol plaque particles, the plasma or serum samples obtained from atherosclerotic subjects were first centrifuged at 5,000 rpm for 5 min and the supernatants were transferred to new centrifuge tubes. Next, the supernatants were diluted in PBS to make 50% of the serum and used for incubation with cholesterol oligomers/aggregates. Each assay was performed in 1 mL reaction (800 μL of 50% plasma or serum) and 200 μL (30 μg) of the Cholesterol aggregates and the mixtures were incubated at 37° C. for 1 hr After the incubation, the mixture was directly used for sample acquisition using flow cytometer (FACS ARIA II, BD Biosciences, San Jose, Calif.). […] In order to isolate these fractions, three sets of gates were drawn in the acquisition blot to separately sort and isolate High density or high complex cholesterol particles, Low density or low complex cholesterol particles and both High and low density cholesterol particles together. The total number of cholesterol particles sorted and collected in separate tubes varied (5000 to 100,000) among serum samples of atherosclerosis subjects.
(§3) For preparing trypsin digested peptide sequences, the isolated plaque particles were centrifuged at 10000 rpm for 5 min and the pellet containing plaque particles was resuspended in 100 μl PBS buffer. Stock solutions of digestion buffer (Ammonium Biocarbonate 50 mM), reducing buffer (DDT 100 mM) and alkylation buffer (lodoaceamide 100 mM) were prepared and stored at −20° C. for up to two months. For trypsin digestion, 100 μl of each plaque particles (2000 of Abeta-42, cholesterol, Tau and alpha-synuclein) were precipitated using cold acetone −80° C. by adding 4X's the volume. The samples were placed on dry ice for 10 min with intermittent vortex. Next, the samples were centrifuged at 4° C. at 10000 G for 10 min. Top layer of acetone was carefully removed from the tube with care not to disturb the plaque particles pellet. The samples were speed-vac for 10 min to ensure all acetone has been boiled away. The plaque particles pellet were reconstituted with 15 μl 8M Urea 100 mM Ammonium bicarbonate stock and 20 μl protease max solution. The protease max solution (Promega, Madison, Wis.) was prepared from stock by adding 60 μl 50 mM Ammonium bicarbonate and used for 3 solution digests (20 μl each). […] The tubes were incubated at 55° C. for 30 minutes. […]
as §1

[4] = system: High Density cholesterol (Chl Large) plaque particles; design: species or system human
Description: as §2, §3, §1

| Substance | Semi-quantitative analysis of proteins binding to different plaque particles: Abeta-42 [1] | Semi-quantitative analysis of proteins binding to different plaque particles: Synuclein [2] | Semi-quantitative analysis of proteins binding to different plaque particles: Tau (Tau plaque particles) | Semi-quantitative analysis of proteins binding to different plaque particles: Chl small [3] | Semi-quantitative analysis of proteins binding to different plaque particles: Chl Large [4] |
| --- | --- | --- | --- | --- | --- |
| Apolipoprotein E | 11 | – | – | – | – |
| Coagulation factor X | 0 | 0 | 0 | 1 | 0 |
| Serum albumin | – | – | 281 | 320 | 340 |
